# According to PubChem BioAssay AID504842 (National Center for Advancing Translational Sciences (NCATS), 2011):
# Shown are results outside the selection of hits, which stands elsewhere. Active and inactive are the calls of the source. Calls follow the shape of the dose curve; as a rule, active = well fitted inhibition curve with a large enough effect; inconclusive = small, poorly fitted or top-dose-only effect; inactive = flat fitted curve, though single readings scatter.
# Test system: Chaperonin Mm-Cpn (Methanococcus maripaludis)
# Assay: Inhibitors of TCP-1 ring complex (TRiC) of Methanococcus maripaludis (MmCpn): qHTS; also: nearly all actives have a fitted effect of over 80% in size
# Settings: purified Mm-Cpn ATPase, ADP Transcreener TR-FRET; at 76.9 µM (top of the series)
# From the text: The eukaryotic chaperonin TRiC (for TCP-1 ring complex) is an essential and conserved chaperone required for the folding and activation of 10-15% of the proteins encoded by the human genome. […] The TRiC complex consist of two stacked 7-9 membered rings, each containing a central cavity. Substrates are folded within the cavity in an ATP-dependent manner. TRiC is a complex of eight different, essential proteins. As each of the genes encoding the eight subunits is essential for cell viability and no protocol has been developed to over-express this enzyme to high levels. […] This assay applied the time resolved fluorescence resonance energy transfer (TR-FRET) principle. […]
# Purified Mm-CPN was supplied by the laboratory of Dr. Judith Frydman. […] Plates were read on the PerkinElmer EnVision plate reader using Excitation = 320 nm and Emission = […], 665 nm. Protocol- 1.Dispense 1.5ul per well of working [Mm-CPN] = 50nM (or 75 ng / well) 2.Spin plate at 1000 rpm for 30 seconds 3.23nl of compound transferred per well 4.Incubate at 37degC for 10 minutes 5.Dispense 1.5ul per well of working [ATP] = 20uM 6.Incubate at 37degC for 30 minutes 7.Dispense 3ul per well of Anti-ADP Cryptate / ADP-d2 mix (prepared as instructed by Cisbio) 8.Incubate at ambient for 30 minutes 9.Read using EnVision
# % is scaled to controls: 0 for no effect and ±100 for the full control effect.
row,Structure (SMILES),"activity, negative = inhibition"
1,CC(CCC(C)C(C)(C)C)[C@@H]1CC[C@H]2C3C[C@H](OS(O)(=S)=S)[C@H]4C[C@H](OS(O)(=S)=S)[C@@H](OS(O)(=S)=S)C[C@]4(C)[C@H]3CC[C@]12C (stereo partly specified) (tested in a mixture with another compound),inactive: -14.3%
